PubChem BioAssay (NCATS)
Only a part is listed here, and it is no random draw. Inconclusive results are not listed. Activity calls are given as the source filed them. Unless noted, calls follow the shape of the dose curve; as a rule, active = well fitted curve in the direction sought with a large enough effect; inconclusive = small, poorly fitted or top-dose-only effect, or another doubt; inactive = no such curve, though single readings can be large; an effect the other way counts as inactive or inconclusive.

By UniProt entry, the sequences of proteins in these tests, tags left out. Where a name states a change or a piece, a line headed by the entry shows the natural chain unless it says otherwise.
UniProt O15297: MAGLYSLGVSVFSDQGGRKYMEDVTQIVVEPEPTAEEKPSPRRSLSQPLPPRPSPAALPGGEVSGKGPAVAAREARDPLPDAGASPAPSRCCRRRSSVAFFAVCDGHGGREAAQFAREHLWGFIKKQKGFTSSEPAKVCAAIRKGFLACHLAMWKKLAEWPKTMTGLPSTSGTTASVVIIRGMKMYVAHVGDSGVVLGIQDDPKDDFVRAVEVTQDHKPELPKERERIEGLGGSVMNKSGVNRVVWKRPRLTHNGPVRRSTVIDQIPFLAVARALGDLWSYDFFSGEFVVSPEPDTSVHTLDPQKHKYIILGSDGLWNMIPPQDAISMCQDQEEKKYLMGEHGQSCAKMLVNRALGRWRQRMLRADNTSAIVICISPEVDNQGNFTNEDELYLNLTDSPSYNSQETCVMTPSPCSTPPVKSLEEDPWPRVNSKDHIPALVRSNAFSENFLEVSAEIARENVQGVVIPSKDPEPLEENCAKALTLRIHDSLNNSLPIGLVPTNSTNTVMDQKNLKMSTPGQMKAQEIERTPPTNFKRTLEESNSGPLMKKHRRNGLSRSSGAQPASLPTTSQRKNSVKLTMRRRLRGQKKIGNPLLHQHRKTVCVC
UniProt Q99828: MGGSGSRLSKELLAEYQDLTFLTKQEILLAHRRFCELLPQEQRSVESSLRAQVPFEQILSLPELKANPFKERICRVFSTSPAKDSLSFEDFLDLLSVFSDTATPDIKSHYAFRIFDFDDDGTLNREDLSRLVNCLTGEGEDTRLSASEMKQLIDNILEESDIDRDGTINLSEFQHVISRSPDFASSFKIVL

What was measured:
[1] = qHTS Assay for Identifying Gametocytocidal Compounds (AID 743244); also: potency is read from the fitted curve at half-maximal effect; details: P. falciparum 3D7 stage III-V gametocytes, alamarBlue, 72 h; max response: active compounds read low
[2] = qHTS of pediatric cancer cell lines to identify multiple opportunities for drug repurposing: Primary screen for TC32 cells (AID 1347089); details: TC32 Ewing sarcoma viability, CellTiter-Glo luminescence, 48 h; at 45.8 µM (top of the series) unless noted; also: % is scaled to controls: 0 for no effect and ±100 for the full control effect; nearly all actives have a fitted effect of over 60% in size
[3] = qHTS of pediatric cancer cell lines to identify multiple opportunities for drug repurposing: Primary screen for DAOY cells (AID 1347090);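 also: plate controls were DMSO for no effect and bortezomib for full effect; nearly all actives have a fitted effect of over 55% in size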
[4] = qHTS of pediatric cancer cell lines to identify multiple opportunities for drug repurposing: Primary screen for SJ-GBM2 cells (AID 1347091); details: SJ-GBM2 viability, CellTiter-Glo luminescence, 48 h; at 46 µM (top of the series) unless noted;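 also: plate controls were DMSO neutral control for no effect and bortezomib for full effect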
[5] = qHTS of pediatric cancer cell lines to identify multiple opportunities for drug repurposing: Primary screen for A673 cells (AID 1347092); details: A673 Ewing sarcoma viability, CellTiter-Glo ATP luminescence, 48 h; at 46 µM (top of the series) unless noted; also: % is scaled to controls: 0 for no effect and ±100 for the full control effect; nearly all actives have a fitted effect of over 45% in size
[6] = qHTS of pediatric cancer cell lines to identify multiple opportunities for drug repurposing: Primary screen for SK-N-MC cells (AID 1347093); details: SK-N-MC viability, CellTiter-Glo luminescence, 48 h; at 46 µM (top of the series) unless noted;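 also: plate controls were DMSO neutral control for no effect and bortezomib for full effect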
[7] = qHTS of pediatric cancer cell lines to identify multiple opportunities for drug repurposing: Primary screen for BT-37 cells (AID 1347094); details: BT-37 viability, CellTiter-Glo luminescence, 48 h; at 57.3 µM (top of the series) unless noted;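 also: plate controls were DMSO for no effect and bortezomib for full effect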
[8] = qHTS of pediatric cancer cell lines to identify multiple opportunities for drug repurposing: Primary screen for NB-EBc1 cells (AID 1347095); details: NB-EBc1 neuroblastoma viability, CellTiter-Glo luminescence, 48 h; at 46 µM (top of the series) unless noted;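 also: plate controls were DMSO neutral control for no effect and bortezomib for full effect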
[9] = qHTS of pediatric cancer cell lines to identify multiple opportunities for drug repurposing: Primary screen for U-2 OS cells (AID 1347096); details: U-2 OS viability, CellTiter-Glo luminescence, 48 h; at 46 µM (top of the series) unless noted;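 also: plate controls were DMSO wells for no effect and bortezomib positive control wells for full effect; nearly all actives have a fitted effect of over 50% in size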
[10] = qHTS of pediatric cancer cell lines to identify multiple opportunities for drug repurposing: Primary screen for Saos-2 cells (AID 1347097); details: Saos-2 viability, CellTiter-Glo ATP luminescence, 48 h; at 46 µM (top of the series) unless noted; also: % is scaled to controls: 0 for no effect and ±100 for the full control effect; nearly all actives have a fitted effect of over 40% in size
[11] = qHTS of pediatric cancer cell lines to identify multiple opportunities for drug repurposing: Primary screen for NB1643 cells (AID 1347099); details: NB1643 neuroblastoma viability, CellTiter-Glo luminescence, 48 h; at 46 µM (top of the series) unless noted;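 also: plate controls were DMSO neutral control for no effect and bortezomib positive control for full effect; nearly all actives have a fitted effect of over 50% in size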
[12] = qHTS of pediatric cancer cell lines to identify multiple opportunities for drug repurposing: Primary screen for LAN-5 cells (AID 1347100); details: LAN-5 neuroblastoma viability, CellTiter-Glo luminescence, 48 h; at 46 µM (top of the series) unless noted;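 also: plate controls were DMSO neutral control for no effect and bortezomib positive control for full effect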
[13] = qHTS of pediatric cancer cell lines to identify multiple opportunities for drug repurposing: Primary screen for BT-12 cells (AID 1347101);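 also: plate controls were DMSO for no effect and bortezomib positive control for full effect; nearly all actives have a fitted effect of over 25% in size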
[14] = qHTS of pediatric cancer cell lines to identify multiple opportunities for drug repurposing: Primary screen for Rh18 cells (AID 1347102); details: Rh18 rhabdomyosarcoma viability, CellTiter-Glo luminescence, 48 h; at 46 µM (top of the series) unless noted; also: % is scaled to controls: 0 for no effect and ±100 for the full control effect; nearly all actives have a fitted effect of over 65% in size
[15] = qHTS of pediatric cancer cell lines to identify multiple opportunities for drug repurposing: Primary screen for OHS-50 cells (AID 1347103);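 also: plate controls were DMSO neutral control for no effect and bortezomib positive control for full effect; nearly all actives have a fitted effect of over 40% in size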
[16] = qHTS of pediatric cancer cell lines to identify multiple opportunities for drug repurposing: Primary screen for RD cells (AID 1347104); details: RD rhabdomyosarcoma viability, CellTiter-Glo luminescence, 48 h; at 46 µM (top of the series) unless noted;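 also: plate controls were DMSO for no effect and bortezomib for full effect; nearly all actives have a fitted effect of over 55% in size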
[17] = qHTS of pediatric cancer cell lines to identify multiple opportunities for drug repurposing: Primary screen for MG 63 (6-TG R) cells (AID 1347105); details: MG 63 (6-TG R) viability, CellTiter-Glo, 48 h; at 46 µM (top of the series) unless noted; also: % is scaled to controls: 0 for no effect and ±100 for the full control effect; nearly all actives have a fitted effect of over 50% in size
[18] = qHTS of pediatric cancer cell lines to identify multiple opportunities for drug repurposing: Primary screen for control Hh wild type fibroblast cells (AID 1347106); details: Hh wild-type fibroblast viability, CellTiter-Glo luminescence, 48 h; at 46 µM (top of the series) unless noted;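 also: % is scaled to controls: 0 for no effect and ±100 for the full control effect; a drop in luminescence marks cytotoxicity and a rise apparent proliferation; nearly all actives have a fitted effect of over 55% in size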
[19] = qHTS of pediatric cancer cell lines to identify multiple opportunities for drug repurposing: Primary screen for Rh30 cells (AID 1347107); details: Rh30 rhabdomyosarcoma viability, CellTiter-Glo luminescence, 48 h; at 46 µM (top of the series) unless noted; also: % is scaled to controls: 0 for no effect and ±100 for the full control effect; nearly all actives have a fitted effect of over 75% in size
[20] = qHTS of pediatric cancer cell lines to identify multiple opportunities for drug repurposing: Primary screen for Rh41 cells (AID 1347108); details: Rh41 rhabdomyosarcoma viability, CellTiter-Glo luminescence, 48 h; at 46 µM (top of the series) unless noted;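 also: luminescence drop marks cytotoxic hits; nearly all actives have a fitted effect of over 70% in size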
[21] = qHTS to identify inhibitors of the type 1 interferon - major histocompatibility complex class I in skeletal muscle: primary screen against the NCATS Pharmaceutical Collection (AID 1347407); details: human skeletal muscle cells, IFN-b-induced MHC-I HiBiT luminescence, 24 h; at 45.9 µM (top of the series) unless noted;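 also: luminescence of HiBiT knocked into endogenous HLA-B as interferon-induced MHC class I level; % is scaled to controls: 0 for no effect and ±100 for the full control effect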
Procedure, shortened: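 Compounds […] were added to CRISPR-engineered HLA-B-HiBiT C25cl48 human myoblasts with 4.0 ng/ml IFN-beta. After 24 hrs at 37 C, cells were lysed and HiBiT luminescence measured.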

[22] = biological target: Protein phosphatase 1D (Homo sapiens) (UniProt O15297); assay: RapidFire Mass Spectrometry qHTS Assay for Modulators of WT P53-Induced Phosphatase 1 (WIP1) (AID 1347424); details: WIP1 dephosphorylation of phosphopeptide, RapidFire MS; at 63 µM (top of the series) unless noted;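 also: amount of dephosphorylated VEPPL-S-QETFS peptide product formed by WIP1; plate controls were DMSO wells for no effect and GSK830371 inhibitor control at 10 µM for full effect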
Procedure, shortened: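 RapidFire mass spectrometry measured dephosphorylated peptide after 5 min room-temperature reaction of 2 uM VEPPL-pS-QETFS with 10 nM WIP1 (50 mM Tris-HCl pH 7.5, 30 mM MgCl2, 0.1 mM EGTA, BSA), following 1 hr compound preincubation; 1 uM isotope-labelled product standard.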

[23] = biological target: Protein phosphatase 1D (Homo sapiens) (UniProt O15297); assay: Rhodamine-PBP qHTS Assay for Modulators of WT P53-Induced Phosphatase 1 (WIP1) (AID 1347425); details: recombinant WIP1, Rhodamine-PBP phosphate fluorescence, real-time; at 57.5 µM (top of the series) unless noted; also: % of control where 0% means no effect
Procedure, shortened: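 Steps: enzyme with Rh-PBP sensor and compounds, room-temperature incubation of 1 hr, baseline read, addition of VEPPL-pS-QETFS (10 uM final), kinetic fluorescence reads at 525/598 nm. Activity equals final minus baseline signal.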

[24] = biological target: Calcium and integrin-binding protein 1 (Homo sapiens) (UniProt Q99828); assay: Primary qHTS for Identification of Calcium Integrin Binding Protein 1 (CIB1) Competitor (AID 1508620); details: CIB1-GST / FITC-alphaIIb peptide fluorescence polarization; at 114 µM (top of the series) unless noted;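 also: GST tagged CIB1 binding a fluorescein labelled alphaIIb integrin peptide tracer; top concentration of the series differs between compounds; % is scaled to controls: 0 for no effect and ±100 for the full control effect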
[25] = A High-Content qHTS Against Drug Library for the Identification of Small Molecules that Inhibit DYT1 Early Onset Primary Dystonia-Associated Cell Pathology (AID 1645839; calls by dose curve)
Procedure, shortened: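 High-content imaging quantified EGFP-TorsinA mislocalization in HEK293-derived cells inducibly expressing DYT1 mutant torsinA, after 48 h exposure to compound given together with tetracycline induction. Cell count served as a toxicity channel alongside %pathology.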

CN(C(=O)Cc1ccc(Cl)c(Cl)c1)[C@H]1CC[C@@]2(CCCO2)C[C@@H]1N1CCCC1
inactive: activity change, negative = cytotoxic [2] 3.7% | Potency [3] | activity change, negative = cytotoxic [4] -9.06% | activity change, negative = cytotoxic [5] -7.19% | activity change, negative = cytotoxic [6] -22.1% | activity change, negative = cytotoxic [7] -0.586% | activity change, negative = cytotoxic [8] -1.11% | activity change, negative = cytotoxic [9] -2.44% | activity change, negative = cytotoxic [10] -22.4% | activity change, negative = cytotoxic [11] 8.96% | activity change, negative = cytotoxic [12] 4.44% | Potency [13] | activity change, negative = cytotoxic [14] 2.64% | Potency [15] | activity change, negative = cytotoxic [16] -9.67% | activity change, negative = cytotoxic [17] -19.4% | activity change, negative = cytotoxic [18] -4.97% | activity change, negative = cytotoxic [19] 18.4% | activity change, negative = cytotoxic [20] 13.7% | activity change, negative = inhibition [21] 0.79% | activity change, negative = inhibition [22] 1.75% | activity change, negative = inhibition [23] 12.7% | activity change, negative = inhibition [24] 0.329% | Potency [25]
active: Potency [1] 22.4 µM
